For three compounds, hERG blockade results are on record in PubChem BioAssay AID376 (PDSP, 2006).

Protein sequences, listed by entry. Tags and fused reporters are not part of them.
UniProt Q12809, whole entry: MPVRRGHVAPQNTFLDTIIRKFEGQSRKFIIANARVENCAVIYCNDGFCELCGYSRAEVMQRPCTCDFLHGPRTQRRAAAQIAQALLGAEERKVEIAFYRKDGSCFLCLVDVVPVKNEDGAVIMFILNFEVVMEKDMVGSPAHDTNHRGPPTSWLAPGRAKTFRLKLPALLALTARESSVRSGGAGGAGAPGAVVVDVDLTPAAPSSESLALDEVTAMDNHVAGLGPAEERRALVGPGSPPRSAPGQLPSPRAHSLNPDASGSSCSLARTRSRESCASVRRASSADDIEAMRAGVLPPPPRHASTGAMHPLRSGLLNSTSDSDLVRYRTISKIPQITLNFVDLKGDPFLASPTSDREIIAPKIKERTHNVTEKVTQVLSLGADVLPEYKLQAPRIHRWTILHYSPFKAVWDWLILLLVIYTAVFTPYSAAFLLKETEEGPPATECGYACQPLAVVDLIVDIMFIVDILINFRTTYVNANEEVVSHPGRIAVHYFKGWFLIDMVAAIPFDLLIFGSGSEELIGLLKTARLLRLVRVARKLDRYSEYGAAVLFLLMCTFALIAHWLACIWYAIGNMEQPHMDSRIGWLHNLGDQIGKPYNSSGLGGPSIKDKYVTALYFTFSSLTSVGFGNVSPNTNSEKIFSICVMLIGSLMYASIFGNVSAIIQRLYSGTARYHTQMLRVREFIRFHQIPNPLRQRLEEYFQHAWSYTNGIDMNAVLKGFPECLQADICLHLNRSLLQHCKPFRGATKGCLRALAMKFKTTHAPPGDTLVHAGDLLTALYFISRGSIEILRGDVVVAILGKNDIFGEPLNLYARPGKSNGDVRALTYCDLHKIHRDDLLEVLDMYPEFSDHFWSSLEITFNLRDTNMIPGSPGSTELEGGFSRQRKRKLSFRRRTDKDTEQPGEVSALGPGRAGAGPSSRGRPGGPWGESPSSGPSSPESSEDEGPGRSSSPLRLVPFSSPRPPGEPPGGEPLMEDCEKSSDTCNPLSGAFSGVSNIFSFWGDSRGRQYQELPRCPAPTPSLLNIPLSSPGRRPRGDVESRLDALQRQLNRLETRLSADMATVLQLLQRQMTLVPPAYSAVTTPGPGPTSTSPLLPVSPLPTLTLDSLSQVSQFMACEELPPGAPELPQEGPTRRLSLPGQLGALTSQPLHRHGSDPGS

This is a selection; strong and weak results do not stand in their true shares. Some tests of the compounds listed are not included; inactive here does not mean inactive elsewhere. Activity calls are given as the source filed them. Rule as the data show it: active = hERG blockade below about -20% or above about 20%; inactive = in between.

This test addresses Voltage-gated inwardly rectifying potassium channel KCNH2 (Homo sapiens) (UniProt Q12809). Description: KCNH2 potassium channel function modulators, cell-based (AID 376).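 Also: 0% = buffer alone and 100% = reference blocker.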 As to conditions: hERG-expressing cells, channel activity single-concentration screen; concentration not given here. In general terms: hERG is a cardiac potassium channel; its block is linked to QT prolongation.
As for `CN1CCC(OC(=O)C(O)(c2ccccc2)C2CCCC2)C1` (stereo not drawn), the hERG blockade is inactive: -6.94%.
Regarding `CN1CCCC(OC(=O)C(O)(c2ccccc2)C2CCCC2)C1` (stereo not drawn), the hERG blockade is active: 20.9%.
As for `C=C(C)C#CC(O)(C(=O)OC1CCN(C)CC1)c1ccccc1` (stereo not drawn), the hERG blockade was inactive: -3.97%.
